Sequences of proteins named here, by UniProt entry; tags and fusion partners are left off. Residues count along the entry.
UniProt Q96RI1, 262-486 limits assumed: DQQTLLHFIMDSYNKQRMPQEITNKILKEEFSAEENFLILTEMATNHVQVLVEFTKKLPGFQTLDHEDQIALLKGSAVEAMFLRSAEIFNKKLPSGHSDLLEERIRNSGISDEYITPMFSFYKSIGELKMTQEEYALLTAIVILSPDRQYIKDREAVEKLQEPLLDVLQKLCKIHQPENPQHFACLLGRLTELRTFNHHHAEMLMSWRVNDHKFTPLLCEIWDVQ

According to PMC6891315, “Synthesis of Novel Farnesoid X Receptor Agonists and Validation of Their Efficacy in Activating Differentiation of Mouse Bone Marrow-Derived Mesenchymal Stem Cells into Osteoblasts” (Molecules, 2019):

Molecular target: T1, FXR (Homo sapiens, UniProt Q96RI1)
T1 construct: purchased Thermo Fisher Scientific
Experiment: LanthaScreen TR-FRET FXR coactivator binding assay
Conditions: percentage activity with respect to 0.5 μM GW4064

In the case of `CC(C)c1onc(-c2c(Cl)cccc2Cl)c1COc1ccc(/C=C/c2cccc(C(=O)O)c2)c(Cl)c1` [GW4064], the “Maximum Activity” value is reported as 135.8 ± 42.6%.
